Consider one compound from article PMC4251066, “Polyyne Hybrid Compounds from Notopterygium incisum with Peroxisome Proliferator-Activated Receptor Gamma Agonistic Effects” (Journal of Natural Products, 2014).

Sequences of proteins named here, by UniProt entry; tags and fusion partners are left off. Residues count along the entry.
UniProt P37231, 29-505: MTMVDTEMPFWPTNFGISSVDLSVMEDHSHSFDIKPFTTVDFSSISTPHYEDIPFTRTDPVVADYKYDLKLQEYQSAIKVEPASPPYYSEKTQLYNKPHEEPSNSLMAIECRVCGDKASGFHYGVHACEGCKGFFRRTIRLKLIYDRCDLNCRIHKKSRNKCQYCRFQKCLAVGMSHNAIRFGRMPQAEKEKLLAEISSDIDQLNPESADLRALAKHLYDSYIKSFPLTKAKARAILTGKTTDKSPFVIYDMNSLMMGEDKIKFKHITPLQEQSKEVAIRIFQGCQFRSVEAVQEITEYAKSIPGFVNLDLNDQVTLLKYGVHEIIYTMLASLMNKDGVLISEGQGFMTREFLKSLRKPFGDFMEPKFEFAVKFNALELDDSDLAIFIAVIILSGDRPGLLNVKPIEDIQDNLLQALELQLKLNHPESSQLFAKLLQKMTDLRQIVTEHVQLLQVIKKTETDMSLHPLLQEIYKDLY

The experiment has as its target human PPARγ (Homo sapiens, UniProt P37231). As to the kind of experiment: PPARγ luciferase reporter gene transactivation in HEK-293 cells. Particulars: PPARγ-driven luciferase reporter assay, 18 h. A general note: In a reporter assay the amount or activity of a reporter protein is the signal.

In the case of `C=C[C@@H](O)C#CC#C[C@H](/C=C\CCCCCCC)OC(=O)/C=C/c1ccc(O)c(OC)c1` [compound 9, Notoincisol A], the maximal fold activation is reported as 2.8.
